Binding of CDR-mutated scFvs to a peptide of the spike HR2 region

Reference: Engelhart et al. 2022, doi:10.1038/s41597-022-01779-4. File: FLAb, binding data.

Target peptide (SARS-CoV-2 spike, HR2 region): PDVDLGDISGINAS

Each scFv is VH, a (GGGGS)3 linker, VL, as in the parent Ab-14, and differs from it in the CDRs of the heavy chain only.
VH: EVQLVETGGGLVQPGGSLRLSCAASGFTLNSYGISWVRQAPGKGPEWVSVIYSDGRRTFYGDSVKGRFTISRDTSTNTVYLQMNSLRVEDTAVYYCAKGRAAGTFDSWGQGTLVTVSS
VL: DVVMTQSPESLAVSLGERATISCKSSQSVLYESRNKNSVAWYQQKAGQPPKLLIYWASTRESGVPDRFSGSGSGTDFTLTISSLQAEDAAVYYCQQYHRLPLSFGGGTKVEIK

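Phage display of a naive human antibody library on the peptide gave the parent. Variants in AAYL49 differ from the parent at up to three CDR positions; double and triple changes were sampled at random. In AlphaSeq, yeast of one mating type display the scFv and yeast of the other type display the target. Mating (16 h, 30 °C) was followed by selection of diploids and sequencing of their barcodes. A regression on co-assayed BCL2-family reference pairs converts the normalised counts of each replicate to an apparent Kd. Each pool was mated in three replicate cultures.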

The parent's heavy chain CDRs are GFTLNSYGIS, VIYSDGRRTFYGDSVK, GRAAGTFDS; each variant's own CDRs replace them letter for letter.
This list gathers variants with a substitution at S53 (VH, numbered from residue 1).
Scale: log10 of Kd in nM, estimated from mating counts; low values are strong binders.
Replicates are averaged; those with no signal do not enter the mean.
"nd" means that the variant was in the library but no mating with the target was seen in any replicate; the authors take this as a sign of poor binding, and no number exists.
Background: pairings of library AAYL49 with three empty control strains gave a value in 15% of cases (median 4.06, 5th percentile 2.83). Values in that range, when seen in few replicates, are hard to tell from nonspecific mating.
In this assay the parent's reference entry averaged 0.65; its copy inside this library read 4.11 (one replicate of three).

The variant GVTLNSYGIS / VIYMDGRRTFYGDSVK / GRAAGMFDS showed 3.51 (1 of 3 replicates). The variant GFTLNSYGIS / VIYKDGRRTMYGDSGK / GRAAGTFDS showed nd (0 of 3 replicates). The variant GFTLNSYGIS / VIWIDGRRTFYGDSVK / GRAIGTFDS gave nd (0 of 3 replicates). For GFTLNPYGIS / VIYCDGRRTFYGDSVK / GRAAGTFDS, the assay gave nd (0 of 3 replicates). With GFTENSYGIS / VIYKDGRRTSYGDSVK / GRAAGTFDS the result was 5.00 (1 of 3 replicates). The variant GFTCNSYGIS / VIYEDGRRTFYGDSVK / GRAWGTFDS showed 3.95 (2 of 3 replicates). The variant GFTLNSYGIS / VITFDGGRTFYGDSVK / GRAAGTFDS showed 2.82 (3 of 3 replicates). The variant GFTLNSYGIS / VIYQDGRRTFYGDSVK / GRCAGTFDS gave nd (0 of 3 replicates).

With RFTLNSYGIS / VIYYDGRRTFYGDSMK / GRAAGTFDS the result was nd (0 of 3 replicates). The variant GFTLNSYGIS / VRYKDGRRTFYGDSVK / MRAAGTFDS showed nd (0 of 3 replicates). The variant GFTLNSYGIS / VIYPDGRRYFYGDSVK / GRIAGTFDS showed 1.33 (3 of 3 replicates). With GFTLNSYGIS / VIYFDGRDTFYGDSVK / GRAAGTFDS the result was 4.41 (1 of 3 replicates). The variant GFTLNSYGIS / VIYFDGRRTFYGDSVK / GRAAGTFDS showed 2.09 (3 of 3 replicates). The variant GFTSNSYGIS / VIYWDGRRTFYGDSVK / GRAAGAFDS showed 5.09 (2 of 3 replicates). The variant GFTLNSYGID / VIYGDGRRTFYGDSVK / GRAAGTFKS showed nd (0 of 3 replicates). For GFTLNSYGIV / VIYIDGRRTFYGDSVK / GRAAGTFDS, the assay gave nd (0 of 3 replicates).

With GFTLNSYGIS / VIYDDGRRTFWGDSVK / VRAAGTFDS the result was nd (0 of 3 replicates). With GFTLNSYGIS / VIYHDARRCFYGDSVK / GRAAGTFDS the result was 4.82 (2 of 3 replicates). The variant GFTLNSYGIS / VIFPDHRRTFYGDSVK / GRAAGTFDS gave nd (0 of 3 replicates). With GFTLNSYGIS / VVYWDGMRTFYGDSVK / GRAAGTFDS the result was nd (0 of 3 replicates). For GFTLNSYGIS / VIDDDGRRTFYGDSVL / GRAAGTFDS, the assay gave nd (0 of 3 replicates). With GFHLNSYGIS / VIYLDGRRTFSGDSVK / GRAAGTFDS the result was nd (0 of 3 replicates). The variant GFTLNSYGIS / VIYADGRRTFYGDSVK / GRAYKTFDS gave 1.06 (3 of 3 replicates). The variant GFTLNSYGIS / VCYWDGRRTFYGDSVK / GRAAGTFDS gave nd (0 of 3 replicates).

With QFTLNSYGIS / VIYFDGRRTFYGDSGK / GRAAGTFDS the result was 2.78 (1 of 3 replicates). The variant GFTLNSYGIS / VIYIDGRRTFYGDSVK / GRAADTFDS gave nd (0 of 3 replicates). The variant GFTDNSYGIS / VGYWDGRRTFYGDSVK / GRAAGTFDS gave 3.42 (1 of 3 replicates). The variant GFTLNSYGCS / VIYDDGKRTFYGDSVK / GRAAGTFDS gave 5.30 (1 of 3 replicates). With AFTANSYGIS / VIYNDGRRTFYGDSVK / GRAAGTFDS the result was nd (0 of 3 replicates). With GFTLNSKGYS / VIYVDGRRTFYGDSVK / GRAAGTFDS the result was nd (0 of 3 replicates). The variant GFTLNSYGIS / CEYGDGRRTFYGDSVK / GRAAGTFDS showed 5.05 (2 of 3 replicates). With GFTLNSYGIS / VIYIDGRRTFYWDSVK / VRAAGTFDS the result was 3.55 (1 of 3 replicates).

The variant GFTLNSYGIS / VIYFDGRRTFYGDSVK / GRAAWTFDS gave nd (0 of 3 replicates). With GFTLNSYGIS / VIYRDGRITFYGDSVK / GRAAGTFDN the result was nd (0 of 3 replicates). The variant GFTLNSYGIS / VILDDGRRTTYGDSVK / GRAAGTFDS gave nd (0 of 3 replicates). For GFTLNKYGIL / VIYWDGRRTFYGDSVK / GRAAGTFDS, the assay gave 5.58 (3 of 3 replicates). For GFTLNSYGIS / VIYGAGRRTFYGDSVK / GRAAGTQDS, the assay gave 3.61 (1 of 3 replicates). For GFTLNSLGIS / VIYRDGRRTFYGDSVK / GRMAGTFDS, the assay gave nd (0 of 3 replicates). With GFTLNSYGIS / VIYTDPRRTFYGDSVK / GRAANTFDS the result was nd (0 of 3 replicates). For GFTLNSYGTS / VIYTDGRDTFYGDSVK / GRAAGTFDS, the assay gave 4.77 (3 of 3 replicates).

The first 4 variants above that were never detected:

CDR-H1	CDR-H2	CDR-H3	mean, log10 nM	seen in
GFTLNSYGIS	VIYKDGRRTMYGDSGK	GRAAGTFDS	nd	0/3
GFTLNSYGIS	VIWIDGRRTFYGDSVK	GRAIGTFDS	nd	0/3
GFTLNPYGIS	VIYCDGRRTFYGDSVK	GRAAGTFDS	nd	0/3
GFTLNSYGIS	VIYQDGRRTFYGDSVK	GRCAGTFDS	nd	0/3